The record followed here is patent publication US20020177166A1, “Binding motif of a receptor” (MEDVET SCIENCE PTY.LTD., priority 2000, published 2002).

Format in all cases: cell-based
The test system of series [1] is PI 3-kinase. Briefly: PI 3-kinase lipid kinase assay on anti-phosphotyrosine immunoprecipitates of CTL-EN cells.
Series [2] concerns TF-1. Nature of the series: TF-1 proliferation assay. The settings on record: recombinant human cytokine produced in E. coli. As to the method:
Recombinant human IL-3 and GM-CSF were produced in E. coli essentially as described in Barry, S. C. et al (1994) J. Biol chem, 269, 8488 and Hercus, T. R. et al (1994) Proc. Nati. Acad. Sci., 91, 5838. Cytokine purity and quantitation was determined by HPLC analysis and Coomasie staining of SDS-PAGE separated proteins. The activity of the cytokines based on the ED50 values in a TF-1 proliferation assay (Kitamura, T. et al (1989) J. Cell Physiol, 140, 323) was 0.03 ng/ml for GM-CSF and 0.1 ng/ml for IL-3.

The test system of series [3] is Akt. Nature of the series: Akt phosphorylation in CTL-EN whole cell lysates, Western blot. The following applies: IL-3. The procedure: (a) CTL-EN cells expressing IL-3Ra and either wtβc or βcHSRSLP→EFAAAA were starved for 12 hours in DMEM containing 0.5% FCS and then stimulated with 50 ng/ml IL-3 for the indicated times. Cells were lysed, whole cell lysates were subjected to SDS-PAGE and transferred to a nitrocellulose filter. Filters were immunoblotted and stripped sequentially with anti-phospho Akt pAb (1:500) anti-phosphorylated STAT5 mAb (2 mg/ml), anti-active MAPK pAb (50 ng/ml) and anti-ERK pAb (1 mg/ml) followed by detection with HRP-conjugated anti-rabbit or anti-mouse IgG antibody and ECL. (b) CTL-EN cells expressing IL-3Ra and either wtβc or βcHSRSLP→EFAAAA were starved for 12 hours in DMEM containing 0.5% FCS and stimulated with 50 ng/ml IL-3 for the indicated times. Cells were lysed and JNK was immunoprecipitated. The immunoprecipitates were then washed in 1× JNK buffer (10 mM MgCl2, 10 mM Tris-HCl ph 7.4) and the JNK activity was then analysed in an in vitro kinase assay using g^32PATP and 1 mg GST-jun1-79. Kinase assays were subjected to SDS-PAGE and transferred to a nitrocellulose filter. An autoradiogram of the filters is shown.
To further examine if 14-3-3 binding to βc was involved in regulating other signalling pathways besides the PI 3-kinase pathway, we investigated a number of additional signalling molecules known to be activated in response to IL-3. […]
In general terms: A western blot detects proteins with antibodies after separation by electrophoresis.

B1: IL-3: recombinant human IL-3 produced in E. coli (protein, UniProt P08700 20-152, looked up)
Interleukin-3: APMTQTTPLKTSWVNCSNMIDEIITHLKQPPLPLLDFNNLNGEDQDILMENNLRRPNLEAFNRAVKSLQNASAIESILKNLLPCLPLATAAPTRHPIHIKDGDWNEFRRKLTFYLKTLENAQAQQTTLSLAIF
Turning to B1, the “PI 3-kinase activity” value in series [1] (CTL-EN wtβc, 50 ng/ml IL-3) was “rapid and transient activation of PI 3-kinase activity”; in series [1] (CTL-EN βcHSRSLP→EFAAAA, IL-3), “No PI 3-kinase activity was observed”; in series [1] (CTL-EN βcS585G, IL-3) it was “No PI 3-kinase activity was observed”. Also, in series [2], the “ED50 in TF-1 proliferation assay” value came to 0.1 ng/mL. Also, the “phosphorylation of Akt” value in series [3] (CTL-EN wtβc) is recorded as “demonstrated phosphorylation of Akt”; in series [3] (CTL-EN βcHSRSLP→EFAAAA) it was “almost completely abolished”.
